Earlier results in patent publication US20250333398A1, “MONOARYL AND HETARYL SUBSTITUTED INDAZOLES AND BENZIMIDAZOLES AS STING ANTAGONISTS AND THE USE THEREOF AS MEDICAMENT” (Boehringer Ingelheim International GmbH, priority 2024, published 2025).
pIC50: −log10 of the molar value.

What was measured:
[1] = system: HAQ STING variant; details: cited from earlier work
[2] = system: THP1 cells; details: read-out: cellular inhibitory activity, cGAMP stimulated INFb production in THP1 cells; cited from earlier work

COc1nn(C2CC2)cc1-n1cc2c(-c3nc(-c4ccc(C(=O)N(C)C)cc4OC(F)(F)F)n(C)c3C3CC3)cccc2n1 [Example 15, 4-{5-cyclopropyl-4-[2-(1-cyclopropyl-3-methoxy-1H-pyrazol-4-yl)-2H-indazol-4-yl]-1-methyl-1H-imidazol-2-yl}-N,N-dimethyl-3-(trifluoromethoxy)benzamide]
pIC50 [1]: 7.39
pIC50 [2]: 4.96
